In ChEMBL document CHEMBL5241069, “A key review on oxadiazole analogs as potential methicillin-resistant Staphylococcus aureus (MRSA) activity: Structure-activity relationship studies” (Eur J Med Chem, 2021):

Tested on: Staphylococcus aureus
Conditions: 032
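Note: growth inhibition of the bacteria, determined by serial dilution following CLSI guidelines.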

GENTAMICIN
MIC: 0.5 µg/mL
